{
  "source": "the NIST ThermoML archive (doi:10.1016/j.jct.2013.11.008)",
  "test": "molar enthalpy of vaporization or sublimation",
  "conditions": "298.15 K; Crystal; Static calorimetry",
  "note": "Numbers after ± are expanded uncertainties.",
  "data": [
    {"smiles": "c1ccc2cccc-2cc1", "note": "[bicyclo[5.3.0]deca-2,4,6,8,10-pentaene]", "values": [
      {"measurement": "molar enthalpy", "value": "19.4 ± 0.359", "unit": "kcal/mol"}
    ]}
  ]
}
